Publication PMC9062740, “The CLIP-170 N-terminal domain binds directly to both F-actin and microtubules in a mutually exclusive manner” (The Journal of Biological Chemistry, 2022)

Target: filamentous actin (F-actin) polymerized from rabbit muscle G-actin (rabbit, UniProt P68135 1-377)
Assay: co-sedimentation; high-speed cosedimentation; CLIP-170 fragments 4 μM, phalloidin 0.8 μM, F-actin 0, 1, 2, 4, 8, 12, 16, 24 and 28 μM in PEM50, room temperature; apparent KD from a simple binding equation, 1:1 binding ratio assumed, Bmax set to 1
Settings: both partners purified

B1: CLIP-170 N-terminal fragment H2 (H2 1-481) (domain or fragment)
chain: MSMLKPSGLKAPTKILKPGSTALKTPTAVVAPVEKTISSEKASSTPSSETQEEFVDDFRVGERVWVNGNKPGFIQFLGETQFAPGQWAGIVLDEPIGKNDGSVAGVRYFQCEPLKGIFTRPSKLTRKVQAEDEANGLQTTPASRATSPLCTSTASMVSSSPSTPSNIPQKPSQPAAKEPSATPPISNLTKTASESISNLSEAGSIKKGERELKIGDRVLVGGTKAGVVRFLGETDFAKGEWCGVELDEPLGKNDGAVAGTRYFQCQPKYGLFAPVHKVTKIGFPSTTPAKAKANAVRRVMATTSASLKRSPSASSLSSMSSVASSVSSRPSRTGLLTETSSRYARKISGTTALQEALKEKQQHIEQLLAERDLERAEVAKATSHVGEIEQELALARDGHDQHVLELEAKMDQLRTMVEAADREKVELLNQLEEEKRKVEDLQFRVEEESITKGDLEQKSQISEDPENTQTKLEHARIKELE
modifications: coiled-coil dimer; N-terminal His tag left out; splice form not given, canonical used (the cDNA may be the shorter 1392-aa form, which would differ only in the C-terminal coiled-coil part, after …)
Kd: ~10.5 µM
